Experimental data reported in patent US10953028B2, “Method of treating heterotopic ossification” (THE REGENTS OF THE UNIVERSITY OF MICHIGAN, priority 2015, dated 2021).

Tests used:
[1] = test system: cells derived from the tenotomy site 3 weeks after injury (3WLST); assay: Transcript levels (qPCR) in cells from the tenotomy site 3 weeks after injury (3WLST) in hypoxia; details: PX-478; hypoxic conditions
[2] = test system: caACVR1fl/fl mice injected with cardiotoxin and Ad.cre
[3] = PX-478, after Ad.cre/cardiotoxin induction

N[C@@H](Cc1ccc([N+]([O-])(CCCl)CCCl)cc1)C(=O)O
Acan transcript level [1]: diminished levels
Hif1α transcript level [1]: diminished levels
Sox9 transcript level [1]: diminished levels
total HO volume ([2]; PX-478 100 mg/kg i.p. every other day, day 22 after induction, control 18.1 mm^3): 0.01 mm^3
total HO normalized volume ([2]; PX-478 100 mg/kg i.p., control = 1.0): 0.0
Hif1α and Sox9 based on immunostaining [2, 3]: elimination
cartilage or bone based on pentachrome staining [2, 3]: near elimination
